The list shows a part of the results, in another mix than the full data. Inconclusive results are not listed. Active and inactive are the calls of the source. Calls follow the shape of the dose curve; as a rule, active = well fitted inhibition curve with a large enough effect; inconclusive = small, poorly fitted or top-dose-only effect; inactive = no such curve, though single readings can be large or run the other way.
Test: qHTS of small molecules that selectively kill Giardia lamblia: Hit Validation.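 Also: viability measured as ATP content by luminescence so killing lowers signal; trophozoites exposed to compounds for 48 h anaerobically at 37 °C; nearly all actives have a fitted effect of over 65% in size.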
Details: Giardia lamblia trophozoite viability, dose-response
From the text: Giardia lamblia is a human pathogen afflicting impoverished nations, and the most common cause of outbreaks of diarrhea in the United States. Giardia has been classified by the CDC as a category B bioterrorism organism. The favored anti giardiasis drugs in the US are metronidazole or tinidazole, compounds that have undesirable side effects. Moreover, increasing resistance to drug regimes and recurrence are a concern. It is thus clear that alternative drug treatments are needed.
In a collaboration between the University of Maryland, College Park and the NIH Chemical Genomics Center, a bioluminescence Giardia viability assay based on the trophozoites' ATP content was developed. This assay is suitable for high throughput screening, and miniaturized the assay for compound screening in 1536-well plates. The goal of the project is to screen the Molecular Libraries Small Molecule Repository (MLSMR) for compounds that selectively kill Giardia trophozoites.
NIH Chemical Genomics Center [NCGC]
NIH Molecular Libraries Probe Centers Network [MLPCN]
Assay Submitter (PI): Osnat Herzberg, University of Maryland, College Park, MD.
1. Dispense 2 ul/well media
2. Dispense 23 nl/well compounds
3. Dispense 4 ul/well Giardia trophozoites at a concentration of 100 cells/well
4. Incubate 48 hrs at 37 deg C anaerobically
5. Dispense 4 ul/well ATPLite 1-Step Luminescence assay kit
6. Incubate 15-30 min at room temperature
7. Read luminescence signal on ViewLux plate reader
In the case of `Nc1cccc([As](=O)(O)c2ccccc2)c1`, the Potency is reported as active: 6500 nM.
In the case of `O=[As](O)(c1cccs1)c1cccs1`, the Potency is reported as active: 2050 nM.
With `O=C(Nc1ccncc1[N+](=O)[O-])c1ccc([N+](=O)[O-])cc1[N+](=O)[O-]` the Potency was active: 1160 nM.
With `O=[N+]([O-])c1cc([N+](=O)[O-])c(-c2ccn[nH]2)s1` the Potency was active: 516 nM.
For `COc1cc(I)ccc1[As](=O)(O)O`, the Potency was active: 1300 nM.
With `NC(=O)c1cc([N+](=O)[O-])cc([N+](=O)[O-])c1N` the Potency was active: 3650 nM.
With `Nc1ccc([As](=O)(O)c2ccc([N+](=O)[O-])cc2)cc1` the Potency was active: 2050 nM.
In the case of `O=[N+]([O-])c1cc([N+](=O)[O-])c2nc[nH]c2c1`, the Potency is reported as active: 1450 nM.
With `O=c1c2cc([N+](=O)[O-])ccc2[nH]c2c([N+](=O)[O-])cc([N+](=O)[O-])cc12` the Potency was active: 2310 nM.

From PubChem BioAssay AID588397 (National Center for Advancing Translational Sciences (NCATS), 2011)
Potency is read from the fitted curve at half-maximal effect.
